Substrate: NC(=O)NO
Conditions: Homo sapiens

B1: Mitochondrial amidoxime-reducing component 1 (Homo sapiens), Q5VT66 (protein)
chain: MGAAGSSALARFVLLAQSRPGWLGVAALGLTAVALGAVAWRRAWPTRRRRLLQQVGTVAQLWIYPVKSCKGVPVSEAECTAMGLRSGNLRDRFWLVINQEGNMVTARQEPRLVLISLTCDGDTLTLSAAYTKDLLLPIKTPTTNAVHKCRVHGLEIEGRDCGEATAQWITSFLKSQPYRLVHFEPHMRPRRPHQIADLFRPKDQIAYSDTSPFLILSEASLADLNSRLEKKVKATNFRPNIVISGCDVYAEDSWDELLIGDVELKRVMACSRCILTTVDPDTGVMSRKEPLETLKSYRQCDPSERKLYGKSPLFGQYFVLENPGTIKVGDPVYLLGQ
Km: 6.7 mM

— ChEMBL document CHEMBL6127109, “mARC1 Is the Main Contributor to Metabolic Reduction of N-Hydroxyurea” (J Med Chem, 2024)
